# Columns and labels:
# L-02 cells [1] = experiment: MTT assay, cell viability of L-02 cells; assay type: cell-based, human; conditions: for cells viabilityrate: L-02, MTT, 24 h
# Experimental: (§1) The normal hepatic cell (L02) cell lines were obtained from the National Infrastructure of Cell Line Resources (Chinese Academy of Medical Sciences, Beijing, China), and maintained in Dulbecco’s modified Eagle’s medium (DMEM, 10-013-CVR) supplemented with 10% fetal bovine serum (FBS, Hyclone), 1% penicillin and streptomycin (PS, 100 IU/ml penicillin, 100 μg/ml streptomycin, Mediatech, 30-002-CI). All cells were incubated in a humidified atmosphere at 37°C with 5% CO2.
# L-02 cells were trypsinized by 0.25% trypsin after reaching the confluence of 70–80% and plated in 96-well plates at the density of 1.6 × 10^3 […]. And L-02 cells were cultured for 24 hours in vitro before exposure to varying concentrations of different representative compounds with liver injury for further incubating in another 24 hours. Then, 20 μl of 0.25 mg/ml3-(4,5-dimethylthiazol-2-yl)-2,5-diphenyltetrazolium bromide (MTT)-tetrazolium salts (Sigma-Aldrich Corp., St. Louis, MO, USA) in PBS was added to each hole in 96-well plates. After 4 hours of incubation, the formazan crystals were dissolved by 150μl Dimethyl Sulphoxide (DMSO), and shocked to dissolve thoroughly, then the cell viability was measured by MTT method at 570 nm. All experiments were repeated in triplicate independently.
# L-02 cells [2] = experiment: Biochemical indicators of hepatotoxicity (ALT, AST, LDH, ALP activity) of L-02 cells, without and with p38 inhibitor SB203580; assay type: cell-based, human
# Experimental: as §1
# To determine how potential liver injury-compounds affected biochemical indicators of L-02 cells, we investigated the activities of AST, ALT, LDH and ALP in cell migration capacity under the different representative compounds conditions (representative compounds group), the inhibitor conditions (inhibitor group), and the negative control. For these experiments, three replicates were made for each concentration of the different representative compounds with liver injury, and each group was established three holes and cultured in 6 times repeatedly. L02 cells were settled into 24-well plate at concentrations of 1.6 × 10^3 per well for 24h and then treated with the concentrations that had been determined by MTT method of the representative candidate liver injury compounds for another 24 h. Subsequently, the supernatant extraction of L02 cells was collected and centrifuged to detect the activities of AST, ALT, LDH, and ALP by chromatometry method.
# To further and fully elucidating the mechanism of the liver injury caused by the representative compounds from urate-lowering Chinese herbs, we chose the p38α inhibitor, SB203580 to verify our findings. Seemingly, the ALT, AST, ALP, and LDH activities of each group decreased to varying degrees under the influence of inhibitor. The specific composition information was shown in S2 Table. […] The Specific specific composition information is was shown in S4 Table.
# [3] = S2 Table, L-02, 5μmol/L+inhibitor (SB203580)
# [4] = S2 Table, L-02, 5μmol/L, no inhibitor
# [5] = S2 Table, L-02, 6μmol/L, no inhibitor
# [6] = S2 Table, L-02, 7μmol/L+inhibitor (SB203580)
# [7] = Table 5, L-02 supernatant, 24 h, 5μmol/L
# [8] = Table 5, L-02 supernatant, 24 h, 6μmol/L
# [9] = Table 5, L-02 supernatant, 24 h, 7μmol/L
substance,measurement,setting,value
Evodiamine,cells viabilityrate,L-02 cells [1]; 5 μmol/L,85.02± 15.70%
same,cells viabilityrate,L-02 cells [1]; 6 μmol/L,50.70± 37.42%
same,cells viabilityrate,L-02 cells [1]; 7 μmol/L,66.87± 11.58%
same,"cell viability of L-02 (MTT), in words",L-02 cells [1]; dose of 5μmol/L,good potency inhibitor against the cell viability
same,ALP,L-02 cells [2]; [3],0.44±0.14 King's unit /100ml
same,AST,L-02 cells [2]; [3],7.11±0.67 U/L
same,LDH,L-02 cells [2]; [3],689.32±39.64 U/L
same,ALP,L-02 cells [2]; [4],0.56± 0.14 King's unit /100ml
same,ALT,L-02 cells [2]; [4],15.54± 0.25 U/L
same,AST,L-02 cells [2]; [4],7.28± 0.12 U/L
same,LDH,L-02 cells [2]; [4],681.23± 16.02 U/L
same,ALT,"L-02 cells [2]; S2 Table, L-02, 6μmol/L+inhibitor (SB203580)",16.42±0.45 U/L
same,ALP,L-02 cells [2]; [5],0.62±0.19 King's unit /100ml
same,ALT,L-02 cells [2]; [5],16.42±0.66 U/L
same,AST,L-02 cells [2]; [5],7.02±0.64 U/L
same,LDH,L-02 cells [2]; [5],614.89±37.46 U/L
same,ALP,L-02 cells [2]; [6],0.70±0.10 King's unit /100ml
same,LDH,L-02 cells [2]; [6],726.54±47.95 U/L
same,ALP,L-02 cells [2]; [7],15.54±0.25 King's unit /100ml
same,ALT,L-02 cells [2]; [7],7.07±0.38 U/L
same,AST,L-02 cells [2]; [7],658.98±40.96 U/L
same,LDH,L-02 cells [2]; [7],0.50±0.16 U/L
same,ALP,L-02 cells [2]; [8],16.42±0.66 King's unit /100ml
same,ALT,L-02 cells [2]; [8],6.74±0.73 U/L
same,AST,L-02 cells [2]; [8],597.09±44.76 U/L
same,LDH,L-02 cells [2]; [8],0.57±0.17 U/L
same,ALP,L-02 cells [2]; [9],16.42±0.87 King's unit /100ml
same,ALT,L-02 cells [2]; [9],6.22±1.15 U/L
same,AST,L-02 cells [2]; [9],612.86±52.77 U/L
same,LDH,L-02 cells [2]; [9],0.49±0.23 U/L

# — article PMC6541264, “Molecular mechanisms involved in drug-induced liver injury caused by urate-lowering Chinese herbs: A network pharmacology study and biology experiments” (PLoS ONE, 2019)
